molecular target: H1047R PIK3CA enzyme (Homo sapiens, UniProt P42336, H1047R); assay: ADP-Glo Biochemical PIK3CA Kinase Assay; conditions: read-out: ADP-Glo IC50

Sequences of proteins named here, by UniProt entry; tags and fusion partners are left off.
UniProt P42336, whole entry H1047R: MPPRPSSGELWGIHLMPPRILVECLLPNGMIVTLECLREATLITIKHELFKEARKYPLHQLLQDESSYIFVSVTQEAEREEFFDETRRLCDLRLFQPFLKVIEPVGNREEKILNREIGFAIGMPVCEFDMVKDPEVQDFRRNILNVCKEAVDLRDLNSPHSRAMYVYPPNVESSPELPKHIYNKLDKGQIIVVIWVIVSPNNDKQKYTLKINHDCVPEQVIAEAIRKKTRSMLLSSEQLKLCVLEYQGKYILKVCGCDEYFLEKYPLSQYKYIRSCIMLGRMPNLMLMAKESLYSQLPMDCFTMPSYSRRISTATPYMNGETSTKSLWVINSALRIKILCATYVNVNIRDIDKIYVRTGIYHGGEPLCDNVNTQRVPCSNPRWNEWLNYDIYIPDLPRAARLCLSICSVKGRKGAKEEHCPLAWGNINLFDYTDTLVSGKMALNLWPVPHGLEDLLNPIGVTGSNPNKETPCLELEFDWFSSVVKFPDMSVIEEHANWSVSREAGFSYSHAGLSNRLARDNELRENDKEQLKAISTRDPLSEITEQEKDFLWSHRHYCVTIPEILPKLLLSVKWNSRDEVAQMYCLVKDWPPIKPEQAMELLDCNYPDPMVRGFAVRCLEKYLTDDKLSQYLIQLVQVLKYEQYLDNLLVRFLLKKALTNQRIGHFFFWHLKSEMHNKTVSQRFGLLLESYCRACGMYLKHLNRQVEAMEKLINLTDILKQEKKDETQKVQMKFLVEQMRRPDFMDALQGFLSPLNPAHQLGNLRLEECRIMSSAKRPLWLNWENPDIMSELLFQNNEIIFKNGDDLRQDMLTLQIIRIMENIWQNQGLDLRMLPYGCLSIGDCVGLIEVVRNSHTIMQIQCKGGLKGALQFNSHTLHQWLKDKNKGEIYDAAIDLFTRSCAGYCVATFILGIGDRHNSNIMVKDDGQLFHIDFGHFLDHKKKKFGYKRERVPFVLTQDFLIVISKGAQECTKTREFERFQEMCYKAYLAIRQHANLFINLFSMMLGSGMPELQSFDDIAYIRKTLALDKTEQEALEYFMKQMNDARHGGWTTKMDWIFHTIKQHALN
UniProt P27986, whole entry partner: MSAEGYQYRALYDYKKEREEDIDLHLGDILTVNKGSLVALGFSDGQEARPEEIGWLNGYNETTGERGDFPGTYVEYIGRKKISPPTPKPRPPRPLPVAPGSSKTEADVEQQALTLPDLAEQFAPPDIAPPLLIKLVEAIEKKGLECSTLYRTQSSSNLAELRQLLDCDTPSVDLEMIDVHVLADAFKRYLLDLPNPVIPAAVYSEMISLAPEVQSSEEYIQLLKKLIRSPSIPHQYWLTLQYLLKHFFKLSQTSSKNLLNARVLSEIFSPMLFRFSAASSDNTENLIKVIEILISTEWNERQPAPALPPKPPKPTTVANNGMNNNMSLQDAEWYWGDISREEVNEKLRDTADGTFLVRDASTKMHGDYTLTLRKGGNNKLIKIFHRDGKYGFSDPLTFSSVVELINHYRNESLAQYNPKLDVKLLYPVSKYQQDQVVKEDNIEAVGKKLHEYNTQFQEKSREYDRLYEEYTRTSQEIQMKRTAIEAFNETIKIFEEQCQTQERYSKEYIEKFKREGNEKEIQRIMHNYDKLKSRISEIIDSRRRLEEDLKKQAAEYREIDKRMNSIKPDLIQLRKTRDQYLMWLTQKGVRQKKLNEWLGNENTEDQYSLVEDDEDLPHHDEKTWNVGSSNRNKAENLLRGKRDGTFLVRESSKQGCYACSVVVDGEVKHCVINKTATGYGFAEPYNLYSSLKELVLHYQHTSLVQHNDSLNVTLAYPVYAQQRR

SMILES | IC50
Nc1cc(NC(=O)c2cc(F)cc(Cl)c2)c2c(c1)C(=O)NC2c1cc(F)ccc1Cl (stereo not drawn) | < 100 nM
Cc1ccccc1C1NC(=O)c2cc(Br)cc(NC(=O)c3cncc(C(F)(F)F)n3)c21 (stereo not drawn) | 10000 to 100000 nM
O=C1N[C@@H](c2cc(F)ccc2Cl)c2c(NC(=O)N3C[C@@](O)(CO)c4ccccc43)cccc21 | 10000 to 100000 nM
CC(O)(CC#N)c1cc(NC(=O)c2cc(F)cc(C(F)(F)F)c2)c2c(c1)C(=O)NC2c1cc(F)ccc1Cl (single isomer, unassigned) [I-1345] | < 100 nM
CC(O)(CC#N)c1cc(NC(=O)c2cc(F)cc(C(F)(F)F)c2)c2c(c1)C(=O)NC2c1cc(F)ccc1Cl (single isomer, unassigned) [I-1344] | 500 to 1000 nM
CC(=O)N1CCC(Oc2cc(NC(=O)c3cc(F)cc(C(F)(F)F)c3)c3c(c2)C(=O)NC3c2cc(F)ccc2Cl)C1 (stereo not drawn) | < 100 nM
O=C1NC(c2cc(F)ccc2Cl)c2c(NC(=O)[C@H]3CCC[C@@H](C(F)(F)F)C3)cc(-c3ccc4ncnn4c3)cc21 (relative stereo) | 100 to 500 nM
O=C1NC(c2cc(F)ccc2Cl)c2c(NC3CCOc4ccccc43)cc(Br)cc21 (stereo not drawn) | 100 to 500 nM
NC1(c2cc(NC(=O)c3cc(F)cc(C(F)(F)F)c3)c3c(c2)C(=O)NC3c2cc(F)ccc2Cl)CC1 (stereo not drawn) | < 100 nM
O=C1NC(c2cc(F)ccc2Cl)c2c(NC(=O)N3CC(O)(C(F)(F)F)c4cc(F)ccc43)cc(-n3ccccc3=O)cc21 (stereo not drawn) | < 100 nM

tested on: PIK3CA-mediated AKT phosphorylation in MCF10A cells overexpressing hotspot PIK3CA mutations (including H1047R, E542K, and E545K); assay: MCF10A Cell-Based PIK3CA Kinase Assay (CisBio Phospho-AKT (Ser473) HTRF assay); conditions: read-out: MCF10A IC50

SMILES | IC50
Nc1cc(NC(=O)c2cc(F)cc(Cl)c2)c2c(c1)C(=O)NC2c1cc(F)ccc1Cl (stereo not drawn) | < 1000 nM
O=C1NC(c2cc(F)ccc2Cl)c2c(NC(=O)N3CC(O)(C(F)(F)F)c4cc(F)ccc43)cc(-n3ccccc3=O)cc21 (stereo not drawn) | < 1000 nM

— patent US12581252B2, “Substituted pyrrolo[3,4-b]pyridines as PI3K-α inhibitors” (Relay Therapeutics, Inc., priority 2020, dated 2026)
